{"sequences": {"note": "Protein sequences, listed by entry. Tags and fused reporters are not part of them. Lines headed by an entry give the natural chain unless they say otherwise; changes in a name come on top.", "UniProt P28074": "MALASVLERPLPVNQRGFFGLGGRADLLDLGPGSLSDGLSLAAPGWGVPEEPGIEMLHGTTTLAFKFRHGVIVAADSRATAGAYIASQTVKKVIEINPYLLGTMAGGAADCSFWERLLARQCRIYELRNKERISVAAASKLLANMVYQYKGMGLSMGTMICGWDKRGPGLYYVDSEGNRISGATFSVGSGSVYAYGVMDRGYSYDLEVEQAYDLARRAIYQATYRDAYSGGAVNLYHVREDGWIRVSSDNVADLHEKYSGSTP"}, "source": "ChEMBL document CHEMBL3217672", "about": "“Optimization of a series of dipeptides with a P3 -neopentyl asparagine residue as non-covalent inhibitors of the chymotrypsin-like activity of human 20S proteasome” (Medchemcomm, 2012)", "key": {"[1]": {"biological_target": "T1, Proteasome Macropain subunit MB1 (Homo sapiens, UniProt P28074)", "test": "Inhibition of 20S proteasome beta5 subunit in human erythrocytes using Ac-WLA-AMC as substrate by fluorescence assay", "assay_type": "cell-based"}, "[2]": {"biological_target": "T1, Proteasome Macropain subunit MB1", "test": "Inhibition of 26S proteasome beta5 subunit in human Calu6 cells using Suc-LLVY-aminoluciferin as substrate after 1hr by luminescence assay", "assay_type": "cell-based, Calu-6"}}, "data": [{"smiles": "CC(C)C[C@H](NC(=O)CNC(=O)c1cc(Cl)ccc1Cl)B(O)O", "note": "[IXAZOMIB]", "values": [{"measurement": "IC50", "setting": "[1]", "result": 3, "unit": "nM"}, {"measurement": "IC50", "setting": "[2]", "result": 9, "unit": "nM"}]}]}
